Assay results published in ChEMBL document CHEMBL1681744, “1-((3S,4S)-4-amino-1-(4-substituted-1,3,5-triazin-2-yl) pyrrolidin-3-yl)-5,5-difluoropiperidin-2-one inhibitors of DPP-4 for the treatment of type 2 diabetes” (Bioorg Med Chem Lett, 2011).

Key:
[1] = target: T1, Prolyl endopeptidase (Homo sapiens, UniProt P48147); assay: Inhibition of POP
T1 sequence (P48147 whole entry): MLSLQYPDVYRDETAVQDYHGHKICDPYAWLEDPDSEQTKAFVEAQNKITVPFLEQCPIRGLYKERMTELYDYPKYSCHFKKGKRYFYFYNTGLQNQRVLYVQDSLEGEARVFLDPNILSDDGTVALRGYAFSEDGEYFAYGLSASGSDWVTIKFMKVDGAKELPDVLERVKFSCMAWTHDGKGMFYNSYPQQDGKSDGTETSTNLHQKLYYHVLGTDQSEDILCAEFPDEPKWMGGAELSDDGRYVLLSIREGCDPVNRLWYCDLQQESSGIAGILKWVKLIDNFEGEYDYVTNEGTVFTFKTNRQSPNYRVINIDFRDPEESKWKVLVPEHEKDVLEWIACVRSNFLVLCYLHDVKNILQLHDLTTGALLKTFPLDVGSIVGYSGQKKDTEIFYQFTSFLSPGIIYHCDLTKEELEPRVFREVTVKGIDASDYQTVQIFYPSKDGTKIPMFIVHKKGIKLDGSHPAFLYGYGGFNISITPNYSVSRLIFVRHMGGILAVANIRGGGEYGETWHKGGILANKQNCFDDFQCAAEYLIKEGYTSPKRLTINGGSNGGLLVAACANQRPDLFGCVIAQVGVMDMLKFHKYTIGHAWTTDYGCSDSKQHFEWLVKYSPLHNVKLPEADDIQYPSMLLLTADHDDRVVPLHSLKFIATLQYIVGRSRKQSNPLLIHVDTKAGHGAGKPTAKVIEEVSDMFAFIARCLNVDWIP

[2] = target: Dipeptidyl peptidase 2 (Homo sapiens, UniProt Q9UHL4); assay: Inhibition of DPP2
[3] = target: T2, Prolyl endopeptidase FAP (Homo sapiens, UniProt Q12884); assay: Inhibition of FAP
T2 sequence (Q12884 whole entry): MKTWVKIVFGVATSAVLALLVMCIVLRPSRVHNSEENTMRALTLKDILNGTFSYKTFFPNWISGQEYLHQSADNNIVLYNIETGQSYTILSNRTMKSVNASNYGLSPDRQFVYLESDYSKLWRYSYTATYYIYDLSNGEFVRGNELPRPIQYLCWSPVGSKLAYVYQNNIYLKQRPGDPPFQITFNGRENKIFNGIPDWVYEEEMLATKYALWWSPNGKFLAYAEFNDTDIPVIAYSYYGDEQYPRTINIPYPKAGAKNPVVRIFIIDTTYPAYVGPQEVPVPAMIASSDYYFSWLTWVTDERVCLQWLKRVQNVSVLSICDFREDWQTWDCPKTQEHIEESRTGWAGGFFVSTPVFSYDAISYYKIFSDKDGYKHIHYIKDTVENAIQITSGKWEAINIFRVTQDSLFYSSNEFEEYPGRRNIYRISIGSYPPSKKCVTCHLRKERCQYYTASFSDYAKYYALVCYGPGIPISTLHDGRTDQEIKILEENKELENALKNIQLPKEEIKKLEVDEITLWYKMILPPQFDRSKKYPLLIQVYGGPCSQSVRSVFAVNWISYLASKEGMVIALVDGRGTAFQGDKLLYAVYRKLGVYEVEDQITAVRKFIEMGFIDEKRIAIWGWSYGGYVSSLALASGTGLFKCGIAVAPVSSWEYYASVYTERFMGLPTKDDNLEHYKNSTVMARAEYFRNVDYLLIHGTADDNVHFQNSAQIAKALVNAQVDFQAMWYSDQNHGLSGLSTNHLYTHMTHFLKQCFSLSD

Measured: Ki

N[C@H]1CN(c2ncnc(N3CCC(F)(F)C3)n2)C[C@@H]1N1CC(F)(F)CCC1=O
> 30 µM: [1] | [2] | [3]
